Experimental data taken from ChEMBL document CHEMBL4049398, “Microscale High-Throughput Experimentation as an Enabling Technology in Drug Discovery: Application in the Discovery of (Piperidinyl)pyridinyl-1H-benzimidazole Diacylglycerol Acyltransferase 1 Inhibitors” (J Med Chem, 2017).

By UniProt entry, the sequences of proteins in these tests, tags left out. Where a name states a change or a piece, a line headed by the entry shows the natural chain unless it says otherwise.
UniProt Q12809: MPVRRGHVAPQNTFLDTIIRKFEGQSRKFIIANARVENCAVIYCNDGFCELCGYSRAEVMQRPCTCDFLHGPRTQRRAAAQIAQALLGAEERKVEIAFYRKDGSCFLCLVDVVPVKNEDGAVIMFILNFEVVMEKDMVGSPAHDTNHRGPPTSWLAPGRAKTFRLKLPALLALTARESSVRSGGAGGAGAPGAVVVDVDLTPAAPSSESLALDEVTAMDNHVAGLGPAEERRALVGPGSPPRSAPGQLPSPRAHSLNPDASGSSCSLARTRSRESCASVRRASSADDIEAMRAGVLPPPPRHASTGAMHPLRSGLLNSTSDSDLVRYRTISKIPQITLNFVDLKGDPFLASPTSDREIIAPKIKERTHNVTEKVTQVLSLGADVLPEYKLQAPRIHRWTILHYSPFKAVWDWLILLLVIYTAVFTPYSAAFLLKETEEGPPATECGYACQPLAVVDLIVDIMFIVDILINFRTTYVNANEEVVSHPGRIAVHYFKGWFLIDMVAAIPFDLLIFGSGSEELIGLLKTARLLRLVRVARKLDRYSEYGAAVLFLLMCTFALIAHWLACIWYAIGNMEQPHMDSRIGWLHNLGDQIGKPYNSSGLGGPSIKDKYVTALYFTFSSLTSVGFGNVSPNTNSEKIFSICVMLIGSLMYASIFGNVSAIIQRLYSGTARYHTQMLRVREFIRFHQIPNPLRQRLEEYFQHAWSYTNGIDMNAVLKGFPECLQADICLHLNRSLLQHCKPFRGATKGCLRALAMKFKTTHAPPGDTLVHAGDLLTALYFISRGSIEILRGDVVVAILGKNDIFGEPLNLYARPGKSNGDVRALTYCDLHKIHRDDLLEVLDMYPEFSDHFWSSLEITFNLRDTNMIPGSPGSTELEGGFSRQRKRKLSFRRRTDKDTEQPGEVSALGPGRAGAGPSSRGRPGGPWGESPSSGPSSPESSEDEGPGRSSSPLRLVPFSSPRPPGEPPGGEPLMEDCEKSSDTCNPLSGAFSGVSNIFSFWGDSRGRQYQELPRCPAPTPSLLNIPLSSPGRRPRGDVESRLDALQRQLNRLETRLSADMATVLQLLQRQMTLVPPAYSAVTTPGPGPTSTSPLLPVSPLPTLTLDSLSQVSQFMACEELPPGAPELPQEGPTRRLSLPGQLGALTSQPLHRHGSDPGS

molecular target: Voltage-gated inwardly rectifying potassium channel KCNH2 (Homo sapiens, UniProt Q12809); experiment: Inhibition of MK499 binding to human ERG

In order of rising IC50:
1. O=C(O)C[C@@H]1COC2(CCN(c3ccc(-c4nc5cc(C(F)(F)F)ccc5[nH]4)cn3)CC2)C1  4.4 µM
2. O=C(O)C[C@H]1COC2(CCN(c3ccc(-c4nc5cc(C(F)(F)F)ccc5[nH]4)cn3)CC2)C1  4.9 µM
3. O=C(O)CC1COC2(CCN(c3ccc(-c4nc5cc(C(F)(F)F)ccc5[nH]4)cn3)CC2)C1 (racemic)  19.5 µM
